# Data published in PMC4403045 (EMBO Molecular Medicine, 2015).
# Tested on: BCR-ABL ALL cells
# Test: survival of mice transplanted with BCR-ABL ALL cells
# Type: in vivo
# Method: Experimental procedures were approved by the Animal Care and Use Committee of Shanghai Institute of Biochemistry and Cell Biology, Chinese Academy of Sciences. In all, 200 wild-type C57BL/6 mice (6 weeks old, female) were used for determining maximally tolerated dose of CY, and testing CY and other drugs' efficacy in the BCR-ABL ALL model. […] At 7 days postinjection, mice were treated with indicated drugs at their MTDs. Mice were monitored daily for survival after drug treatment. Survival curve and statistical analysis were done using the Prism software. For xenograft H460 model, in all, nude mice (8 weeks old, female) were used to test CY and bendamustine's in vivo efficacy. The numbers of mice used in each experimental group are labeled on Fig4.
structure (smiles),measurement,value
Cc1nc(Nc2ncc(C(=O)Nc3c(C)cccc3Cl)s2)cc(N2CCN(CCO)CC2)n1 [dasatinib],"survival extension, daily doses",up to 2 months
